The results in this text go back to patent publication US7893074B2, “2, 4-pyrimidinediamines useful in the treatment of neoplastic diseases, inflammatory and immune system disorders” (Novartis AG, priority 2003, dated 2011).

Protein sequences, listed by entry. Tags and fused reporters are not part of them. Residues count along the entry.
UniProt Q05397, 384-706 limits assumed: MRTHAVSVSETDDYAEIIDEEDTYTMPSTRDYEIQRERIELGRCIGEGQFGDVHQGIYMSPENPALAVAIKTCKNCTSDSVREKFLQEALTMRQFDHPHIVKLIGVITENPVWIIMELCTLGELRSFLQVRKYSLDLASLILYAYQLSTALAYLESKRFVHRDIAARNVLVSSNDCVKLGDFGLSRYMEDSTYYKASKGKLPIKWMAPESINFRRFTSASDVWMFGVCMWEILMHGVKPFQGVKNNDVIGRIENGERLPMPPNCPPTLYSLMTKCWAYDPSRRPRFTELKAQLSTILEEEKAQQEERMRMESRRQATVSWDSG
UniProt P34152, 2-1052 limits assumed: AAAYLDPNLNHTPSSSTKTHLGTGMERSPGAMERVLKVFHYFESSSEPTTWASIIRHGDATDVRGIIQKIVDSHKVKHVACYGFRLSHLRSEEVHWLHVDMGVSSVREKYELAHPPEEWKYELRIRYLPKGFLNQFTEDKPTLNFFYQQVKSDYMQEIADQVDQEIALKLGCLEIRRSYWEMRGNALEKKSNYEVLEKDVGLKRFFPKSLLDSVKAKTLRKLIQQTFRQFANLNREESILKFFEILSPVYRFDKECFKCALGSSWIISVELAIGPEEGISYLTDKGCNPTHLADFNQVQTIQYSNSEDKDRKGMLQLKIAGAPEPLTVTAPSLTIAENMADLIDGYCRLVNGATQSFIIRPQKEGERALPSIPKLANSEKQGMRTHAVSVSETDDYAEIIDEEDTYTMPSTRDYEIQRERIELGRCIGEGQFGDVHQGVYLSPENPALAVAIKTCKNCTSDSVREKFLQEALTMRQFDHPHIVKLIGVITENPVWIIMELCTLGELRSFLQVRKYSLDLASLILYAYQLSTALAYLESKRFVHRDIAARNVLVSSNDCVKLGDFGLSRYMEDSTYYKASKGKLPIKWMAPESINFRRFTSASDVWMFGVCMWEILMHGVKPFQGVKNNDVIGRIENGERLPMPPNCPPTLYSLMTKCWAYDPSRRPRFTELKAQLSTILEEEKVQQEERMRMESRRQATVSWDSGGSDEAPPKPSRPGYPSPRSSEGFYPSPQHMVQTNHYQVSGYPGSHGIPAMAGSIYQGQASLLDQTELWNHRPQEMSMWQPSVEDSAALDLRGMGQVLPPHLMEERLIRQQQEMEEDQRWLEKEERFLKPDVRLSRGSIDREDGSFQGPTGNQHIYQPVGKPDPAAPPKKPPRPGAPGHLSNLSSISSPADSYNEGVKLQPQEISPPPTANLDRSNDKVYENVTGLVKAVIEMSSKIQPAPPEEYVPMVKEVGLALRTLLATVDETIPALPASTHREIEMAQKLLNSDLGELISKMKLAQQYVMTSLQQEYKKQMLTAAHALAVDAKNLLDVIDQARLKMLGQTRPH
UniProt P08069, 31-1367 limits assumed: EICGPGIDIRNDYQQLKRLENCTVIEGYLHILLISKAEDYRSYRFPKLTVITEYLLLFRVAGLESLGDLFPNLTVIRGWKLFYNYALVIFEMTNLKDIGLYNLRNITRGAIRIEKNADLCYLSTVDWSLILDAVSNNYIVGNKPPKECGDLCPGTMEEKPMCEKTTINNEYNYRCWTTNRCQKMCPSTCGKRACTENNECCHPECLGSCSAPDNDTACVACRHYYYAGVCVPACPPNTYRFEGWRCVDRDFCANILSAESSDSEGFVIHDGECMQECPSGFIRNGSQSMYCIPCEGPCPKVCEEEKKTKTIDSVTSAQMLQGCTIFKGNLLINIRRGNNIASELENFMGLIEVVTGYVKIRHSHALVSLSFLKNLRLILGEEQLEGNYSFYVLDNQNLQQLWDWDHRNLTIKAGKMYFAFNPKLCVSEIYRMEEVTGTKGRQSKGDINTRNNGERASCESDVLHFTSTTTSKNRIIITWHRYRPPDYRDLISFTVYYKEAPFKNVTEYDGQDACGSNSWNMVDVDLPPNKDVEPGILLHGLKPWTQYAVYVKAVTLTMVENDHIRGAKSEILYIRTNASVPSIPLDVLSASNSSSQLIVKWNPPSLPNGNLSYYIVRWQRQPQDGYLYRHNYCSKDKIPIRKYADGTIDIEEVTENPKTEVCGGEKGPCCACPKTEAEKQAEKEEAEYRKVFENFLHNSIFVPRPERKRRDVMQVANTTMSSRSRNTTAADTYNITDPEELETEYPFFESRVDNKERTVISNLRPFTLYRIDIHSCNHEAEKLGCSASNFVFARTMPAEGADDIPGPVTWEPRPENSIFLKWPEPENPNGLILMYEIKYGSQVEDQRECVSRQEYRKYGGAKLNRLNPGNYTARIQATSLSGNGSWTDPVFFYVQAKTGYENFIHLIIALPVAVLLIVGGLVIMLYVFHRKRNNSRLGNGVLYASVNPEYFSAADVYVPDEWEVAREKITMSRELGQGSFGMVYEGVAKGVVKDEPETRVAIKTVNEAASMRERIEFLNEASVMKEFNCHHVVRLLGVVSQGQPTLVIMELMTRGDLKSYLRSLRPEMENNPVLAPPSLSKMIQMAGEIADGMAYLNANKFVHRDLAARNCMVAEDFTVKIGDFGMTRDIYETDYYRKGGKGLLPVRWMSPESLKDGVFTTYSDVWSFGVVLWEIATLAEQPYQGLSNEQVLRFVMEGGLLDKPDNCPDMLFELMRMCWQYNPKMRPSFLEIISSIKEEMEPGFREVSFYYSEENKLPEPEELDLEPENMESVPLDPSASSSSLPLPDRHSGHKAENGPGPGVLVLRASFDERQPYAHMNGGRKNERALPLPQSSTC

One test relates to T Cell. Briefly: T Cell Migration. The conditions noted are these: read-out: T Cell Migration IC50. It is filed as cell-based.
The target in test [1] is Focal Adhesion Kinase (FAK) (Homo sapiens, UniProt Q05397). Briefly: FAK assay system (Focal Adhesion Kinase inhibition). It is filed as biochemical. The conditions noted are these: read-out: FAK IC50.
Test [2] concerns Mouse mammary carcinoma 4T1 cells. Briefly: Anchorage-independent tumor cell growth assay. The class given is cell-based. The conditions noted are these: read-out: Growth IC50.
The target in a further test is FAK (Mus musculus, UniProt P34152). Briefly: Phos IC50 (phosphorylation). The class given is cell-based. The conditions noted are these: read-out: Phos IC50.
The next test deals with IGF-IR (Homo sapiens, UniProt P08069). Briefly: Cellular Capture ELISA of IGF-I induced autophosphorylation of the IGF-IR. The class given is cell-based. The note with it: read-out: IGF-1R IC50. (An ELISA detects its analyte on a solid surface through an enzyme-linked reagent.)

SMILES strings stand for the structures.

For `CCCS(=O)(=O)c1ccccc1Nc1nc(Nc2cc(N3CCC(N4CCCCC4)CC3)ccc2OC)ncc1Cl`, the IC50 is 90 nM with T Cell, 1.9 nM in test [1] and 70 nM in test [2].
Regarding `CCCS(=O)(=O)c1ccccc1Nc1nc(Nc2cc(N3CCC(N4CCN(C)CC4)CC3)ccc2OC)ncc1Cl`, the IC50 came out at 1.6 nM in test [1] and 50 nM in test [2].
The like results for `CCCS(=O)(=O)c1ccccc1Nc1nc(Nc2cc(N3CCC(O)CC3)ccc2OC)ncc1Cl` were, in that order, 4.5 nM and 50 nM.
For `CCCS(=O)(=O)c1ccccc1Nc1nc(Nc2cc(N3CCN(C)CC3)ccc2OC)ncc1Cl`, the IC50 with T Cell stood at 250 nM; in test [1], 7 nM.
With `CCCS(=O)(=O)c1ccccc1Nc1nc(Nc2cc(N3CCC(N4CCOCC4)CC3)ccc2OC)ncc1Cl`, the IC50 in test [1] stood at 4 nM.
With `CCN(CCO)c1ccc(Nc2ncc(Br)c(Nc3ccccc3S(=O)(=O)NC)n2)c(C)c1`, the IC50 at FAK amounted to 200 nM; in test [1], 29 nM; on IGF-IR, 410 nM.
For the compound `CNC(=O)c1ccccc1Nc1nc(Nc2ccc(N3CCCC(C(N)=O)C3)cc2OC)ncc1Cl` (stereo not shown), the IC50 is 7.5 nM in test [1] and 770 nM at IGF-IR.
As for `CCCS(=O)(=O)c1ccccc1Nc1nc(Nc2cc(N3CCC(NC)C3)ccc2OC)ncc1Cl` (stereo not shown), the IC50 in test [1] is less than 1 nM.
